Patent US9085561B2, “Cyclic urea- or lactam-substituted quinoxaline-type piperidines as ORL-1 modulators” (priority 2012, dated 2015)

Tests used:
[1] = target: T1, human opioid receptor-like (ORL-1) (Homo sapiens, UniProt P41146); assay: In vitro ORL-1 receptor [35S]GTPγS functional assay; assay type: biochemical; conditions: procedure of Example 38; for EC50: read-out: GTPγS ORL-1 EC50 [mean ± SEM]
[2] = target: T1, human opioid receptor-like (ORL-1); assay: In vitro ORL-1 receptor binding assay ([3H]-nociceptin displacement); conditions: read-out: Ki [Average ± Std Deviation] ORL-1; binding to ORL-1 receptor, procedure of Example 37

Structure (SMILES)	GTPγS ORL-1 Emax [mean ± SEM] [1] [%]	EC50 [1] [nM]	Ki [2] [nM]
CC1(C)[C@H]2CC[C@@H](CCN3[C@@H]4CCC[C@H]3C[C@@H](n3c(=O)c(-c5cccc(=O)n5CC(=O)O)nc5ccccc53)C4)[C@@H]1C2	91 ± 8	26.7	4.7
O=C(O)Cn1c(-c2nc3ccccc3n(C3CC4CCCC(C3)N4C3CC4CCCC(C4)C3)c2=O)n[nH]c1=O (stereo not drawn)	20.3 ± 1.9	47.6	6.93
O=C(O)c1c[nH]c(=O)c(-c2nc3ccccc3n([C@H]3C[C@H]4CCC[C@@H](C3)N4[C@H]3C[C@@H]4CCC[C@@H](C4)C3)c2=O)c1	23.7 ± 0.7	5.2	7.7
O=C(O)c1cc(-c2nc3ccccc3n(C3CC4CCCC(C3)N4C3CC4CCCC(C4)C3)c2=O)c[nH]c1=O (stereo not drawn)	18.0 ± 1.1	1.08	1.52
O=C1NCCN1c1nc2ccccc2n([C@H]2C[C@H]3CCC[C@@H](C2)N3[C@H]2C[C@@H]3CCC[C@@H](C3)C2)c1=O	15.3 ± 1.2	0.55	1.67
O=c1[nH]c(=O)n(-c2nc3ccccc3n([C@H]3C[C@H]4CCC[C@@H](C3)N4[C@H]3C[C@@H]4CCC[C@@H](C4)C3)c2=O)cc1F	9.7 ± 0.9	42.9	5.07
O=c1[nH]cccc1-c1nc2ccccc2n([C@H]2C[C@H]3CCC[C@@H](C2)N3[C@@H]2C[C@@H]3CCCC[C@@H](C3)C2)c1=O	21.7 ± 2.3	2.96	0.55
O=c1[nH]cccc1-c1nc2ccccc2n([C@H]2C[C@H]3CC[C@@H](C2)N3[C@@H]2C[C@@H]3CCCC[C@@H](C3)C2)c1=O	23.7 ± 0.9	8	1.37
Nc1ccn(-c2nc3ccccc3n([C@H]3C[C@H]4CCC[C@@H](C3)N4[C@H]3C[C@@H]4CCC[C@@H](C4)C3)c2=O)c(=O)n1 [B5a(i), 1-((1R,1′R,3r,3′R,5S,5′S)-[3,9′-bi(9′-azabicyclo[3.3.1]nonan)]-3′-yl)-3-(4-amino-2-oxopyrimidin-1(2H)-yl)quinoxalin-2(1H)-one]	−0.3 ± 0.7		
Nc1nc(=O)n(-c2nc3ccccc3n([C@H]3C[C@H]4CCC[C@@H](C3)N4[C@H]3C[C@@H]4CCC[C@@H](C4)C3)c2=O)cc1F [B7a(i), 1-((1R,1′R,3r,3′R,5S,5′S)-[3,9′-bi(9′-azabicyclo[3.3.1]nonan)]-3′-yl)-3-(4-amino-5-fluoro-2-oxopyrimidin-1(2H)-yl)quinoxalin-2(1H)-one]	18 ± 1	22.5	3
O=C(O)Cn1c(-c2nc3ccccc3n([C@H]3C[C@H]4CCC[C@@H](C3)N4C3CCCCCCCCC3)c2=O)cccc1=O [BB1c(iii), 2-(6-(4-((1R,3r,5S)-9-cyclodecyl-9-azabicyclo[3.3.1]nonan-3-yl)-3-oxo-3,4-dihydroquinoxalin-2-yl)-2-oxopyridin-1(2H)-yl)acetic acid]			7.1
O=C(O)Cn1cccc(-c2nc3ccccc3n([C@H]3C[C@H]4CCC[C@@H](C3)N4C3CCCCCCCCC3)c2=O)c1=O [BB13c(iii), 2-(3-(4-((1R,3r,5S)-9-cyclodecyl-9-azabicyclo[3.3.1]nonan-3-yl)-3-oxo-3,4-dihydroquinoxalin-2-yl)-2-oxopyridin-1(2H)-yl)acetic acid]	127.3 ± 1.3		
O=c1cnn(-c2nc3ccccc3n([C@H]3C[C@H]4CC[C@@H](C3)N4[C@H]3C[C@@H]4CCC[C@@H](C4)C3)c2=O)c(=O)[nH]1 [Compound A9a, 2-(4-((1R,3R,5S)-8-((1R,3r,5S)-bicyclo[3.3.1]nonan-3-yl)-8-azabicyclo[3.2.1]octan-3-yl)-3-oxo-3,4-dihydroquinoxalin-2-yl)-1,2,4-triazine-3,5(2H,4H)-dione]	15.3 ± 1.7		
O=c1ccn(-c2nc3ccccc3n([C@H]3C[C@H]4CCC[C@@H](C3)N4[C@H]3C[C@@H]4CCC[C@@H](C4)C3)c2=O)c(=O)[nH]1 [Compound B13a, 1-(4-((1R,1′R,3r,3′R,5S,5′S)-[3,9′-bi(9′-azabicyclo[3.3.1]nonan)]-3′-yl)-3-oxo-3,4-dihydroquinoxalin-2-yl)pyrimidine-2,4(1H,3H)-dione]	0.3 ± 0.7		
O=c1cnn(-c2nc3ccccc3n([C@H]3C[C@H]4CCC[C@@H](C3)N4C3CCCCCCC3)c2=O)c(=O)[nH]1 [Compound H9c, 2-(4-((1R,3r,5S)-9-cyclooctyl-9-azabicyclo[3.3.1]nonan-3-yl)-3-oxo-3,4-dihydroquinoxalin-2-yl)-1,2,4-triazine-3,5(2H,4H)-dione]	41 ± 2		
O=c1cnn(-c2nc3ccccc3n([C@H]3C[C@H]4CCC[C@@H](C3)N4[C@@H]3C[C@@H]4CCCC[C@@H](C4)C3)c2=O)c(=O)[nH]1 [Compound O9b, 2-(4-((1R,3R,5S)-9-((1R,6S,8s)-bicyclo[4.3.1]decan-8-yl)-9-azabicyclo[3.3.1]nonan-3-yl)-3-oxo-3,4-dihydroquinoxalin-2-yl)-1,2,4-triazine-3,5(2H,4H)-dione]	−1		
O=c1ccn(-c2nc3ccccc3n([C@H]3C[C@H]4CCC[C@@H](C3)N4[C@@H]3C[C@@H]4CCCC[C@@H](C4)C3)c2=O)c(=O)[nH]1 [Compound O13b, 1-(4-((1R,3R,5S)-9-((1R,6S,8s)-bicyclo[4.3.1]decan-8-yl)-9-azabicyclo[3.3.1]nonan-3-yl)-3-oxo-3,4-dihydroquinoxalin-2-yl)pyrimidine-2,4(1H,3H)-dione]	−1		
Cc1cc(=O)[nH]c(=O)n1-c1nc2ccccc2n([C@H]2C[C@H]3CCC[C@@H](C2)N3[C@H]2C[C@@H]3CCC[C@@H](C3)C2)c1=O [Compound U065, 1-(4-((1R,1R,3r,3′R,5S,5′S)-[3,9′-bi(9′-azabicyclo[3.3.1]nonan)]-3′-yl)-3-oxo-3,4-dihydroquinoxalin-2-yl)-6-methylpyrimidine-2,4(1H,3H)-dione]			8.2
Nc1ccn(-c2nc3ccccc3n([C@H]3C[C@H]4CCC[C@@H](C3)N4[C@@H]3C[C@@H]4CCCC[C@@H](C4)C3)c2=O)c(=O)n1 [Compound U068, 3-(4-amino-2-oxopyrimidin-1(2H)-yl)-1-((1R,3R,5S)-9-((1R,6S,8s)-bicyclo[4.3.1]decan-8-yl)-9-azabicyclo[3.3.1]nonan-3-yl)quinoxalin-2(1H)-one]	−1		
O=C(O)Cn1cccc(-c2nc3ccccc3n([C@H]3C[C@H]4CC[C@@H](C3)N4[C@H]3C[C@@H]4CCC[C@@H](C4)C3)c2=O)c1=O [Q13a(iii), 2-(3-(4-((1R,3R,5S)-8-((1R,3r,5S)-bicyclo[3.3.1]nonan-3-yl)-8-azabicyclo[3.2.1]octan-3-yl)-3-oxo-3,4-dihydroquinoxalin-2-yl)-2-oxopyridin-1(2H)-yl)acetic acid]	41.7 ± 1.8		
O=c1[nH]cc(F)cc1-c1nc2ccccc2n([C@H]2C[C@H]3CCC[C@@H](C2)N3[C@H]2C[C@@H]3CCC[C@@H](C3)C2)c1=O [R16a(i), 1-((1R,1′R,3r,3′R,5S,5′S)-[3,9′-bi(9′-azabicyclo[3.3.1]nonan)]-3′-yl)-3-(5-fluoro-2-oxo-1,2-dihydropyridin-3-yl)quinoxalin-2(1H)-one]	29.3 ± 3.5		
